One data set concerns the target human OX1R (Homo sapiens, UniProt O43613). Kind of data set: FLIPR orexin A-stimulated calcium accumulation, human OX1R. The conditions noted are these: pKi, CHO cells. It counts as cell-based. The arrangement: expressed in transfected cells; host or cells: CHO; cells from GNF, San Diego.
The conditions of data set [1]: ref Farkas, 2013; cited from earlier work.

Sequences of proteins named here, by UniProt entry; tags and fusion partners are left off.
UniProt O43613, whole entry: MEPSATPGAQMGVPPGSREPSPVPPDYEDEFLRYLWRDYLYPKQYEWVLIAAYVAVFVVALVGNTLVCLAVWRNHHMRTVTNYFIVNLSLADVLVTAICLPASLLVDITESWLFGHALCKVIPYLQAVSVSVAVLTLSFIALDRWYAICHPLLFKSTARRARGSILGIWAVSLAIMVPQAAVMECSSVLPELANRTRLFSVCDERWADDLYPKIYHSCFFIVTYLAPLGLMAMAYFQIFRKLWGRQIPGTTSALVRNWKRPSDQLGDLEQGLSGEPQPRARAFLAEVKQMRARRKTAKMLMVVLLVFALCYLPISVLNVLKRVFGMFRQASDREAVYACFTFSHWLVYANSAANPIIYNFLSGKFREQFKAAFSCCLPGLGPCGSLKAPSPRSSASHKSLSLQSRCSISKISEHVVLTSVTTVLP

Molecules are shown by their SMILES.

As for `CNC(=O)[C@@H](c1ccccc1)N1CCc2cc(OC)c(OC)cc2[C@@H]1CCc1ccc(C(F)(F)F)cc1` [Almorexant], the Ki on human OX1R (antagonist incubation 30 min) was 14.5 nM; on human OX1R (antagonist incubation 1 h) it was 18.6 nM; on human OX1R (antagonist incubation 2 h), 17.8 nM; at human OX1R (antagonist incubation 4 h), 17.8 nM.

As to `Cc1ccc(-n2nccn2)c(C(=O)N2CCN(c3nc4cc(Cl)ccc4o3)CC[C@H]2C)c1` [Suvorexant], the “FDA conclusion on safety” value in data set [1] is given as “not considered safe at doses higher than 20 mg”. Also, the Ki was 4.07 nM on human OX1R (antagonist incubation 30 min), 1.82 nM on human OX1R (antagonist incubation 1 h), 1.78 nM at human OX1R (antagonist incubation 2 h) and 1.86 nM on human OX1R (antagonist incubation 4 h).
